Apparent affinities of Ab-95 variants for a coronavirus HR2 peptide

From the AlphaSeq antibody data of Engelhart et al. 2022 (doi:10.1038/s41597-022-01779-4), copy in the FLAb collection.

All variants were tested on one target, the spike HR2 peptide PDVDLGDISGINAS (SARS-CoV-2).

Each scFv is VH, a (GGGGS)3 linker, VL, as in the parent Ab-95, and differs from it in the CDRs of the light chain only.
VH: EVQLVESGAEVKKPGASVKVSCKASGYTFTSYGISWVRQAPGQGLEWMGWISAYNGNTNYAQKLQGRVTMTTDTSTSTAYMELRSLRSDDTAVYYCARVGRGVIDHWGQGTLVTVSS
VL: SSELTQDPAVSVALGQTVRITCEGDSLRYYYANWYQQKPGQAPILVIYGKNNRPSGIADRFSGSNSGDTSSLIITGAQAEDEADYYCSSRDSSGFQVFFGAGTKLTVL

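Phage display of a naive human antibody library on the peptide gave the parent. Variants in AAYL52 differ from the parent at up to three CDR positions; double and triple changes were sampled at random. The assay is AlphaSeq: two haploid yeast populations carry antibody and antigen on their surface. Binding brings cells together so that they mate, and sequencing counts the barcode pairs among the diploids. Read counts were normalised to the haploid input and turned into Kd by a linear fit to BCL2-family pairs of known affinity, for each replicate. There are three technical replicates.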

Positions count from residue 1 of the parent VL; G24Y puts Y in place of G. Scale: log10 of Kd in nM, estimated from mating counts; low values are strong binders. Averages over replicates are reported, and they cover detected replicates only. An entry "n.d." has no value in the source: the pair was not observed among the diploids in that replicate. This suggests poor binding but is not conclusive. Three control strains display no target. For library AAYL52, 28% of the pairings with them gave a signal, with a median of 3.91 and one signal in twenty below 2.90, so weak values seen in few replicates may be background. Also given: how often the same scFv was detected with the empty control strains, with their mean in brackets.

| # | changes | log10 Kd, replicates | log10 Kd (nM), mean | signal with controls |
|---|---|---|---|---|
| 1 | G24Y D91E Q96D | 3.16 n.d. 3.81 | 3.49 | 3 of 9 (4.43) |
| 2 | D91Q S92N Q96L | n.d. n.d. n.d. | n.d. | 3 of 9 (3.09) |
| 3 | D25H L27M F95C | n.d. 4.38 n.d. | 4.38 | 2 of 9 (4.16) |
| 4 | L27P A32L R90F | 4.54 4.77 3.45 | 4.25 | 6 of 9 (4.25) |
| 5 | S55W R90P | n.d. 3.07 n.d. | 3.07 | 4 of 9 (3.03) |
| 6 | A32K R53Q F98S | n.d. n.d. n.d. | n.d. | 5 of 9 (3.49) |
| 7 | S26N K50A F98Y | 2.85 2.80 2.72 | 2.79 | 1 of 9 (3.39) |
| 8 | Y30G G49K D91P | 2.81 3.06 2.13 | 2.67 | 0 of 9 |
| 9 | R53G D91W V97A | 2.80 2.82 n.d. | 2.81 | 2 of 9 (3.92) |
| 10 | S26D G49F | 4.04 4.69 4.13 | 4.29 | 6 of 9 (3.95) |
| 11 | N52K Q96Y F98L | 5.45 n.d. n.d. | 5.45 | 4 of 9 (4.47) |
| 12 | L27I Y30I S88W | n.d. n.d. 3.91 | 3.91 | 2 of 9 (3.78) |
| 13 | G24Q N33E F95E | n.d. n.d. n.d. | n.d. | 2 of 9 (4.06) |
| 14 | K50W S88I R90C | n.d. n.d. n.d. | n.d. | 0 of 9 |
| 15 | S26M Y29M G94P | 3.56 n.d. 3.32 | 3.44 | 5 of 9 (3.77) |
| 16 | N52H D91A F95D | 3.04 3.01 2.91 | 2.99 | 5 of 9 (3.53) |
| 17 | Y30Q R53Q S88M | 0.78 0.83 0.22 | 0.61 | 6 of 9 (4.26) |
| 18 | Y31F K50G V97T | 2.06 2.01 1.73 | 1.93 | 3 of 9 (3.36) |
| 19 | G24L Y30M N52D | 2.92 2.95 2.63 | 2.84 | 5 of 9 (3.62) |
| 20 | S26Y K50M N52A | 4.68 4.00 4.06 | 4.25 | 1 of 9 (3.76) |
| 21 | Y31S K50E R90T | n.d. n.d. n.d. | n.d. | 0 of 9 |
| 22 | G24S N51R S93P | 3.79 n.d. 3.08 | 3.44 | 2 of 9 (4.63) |
| 23 | S26T S55R S89L | 3.59 n.d. 4.42 | 4.00 | 3 of 9 (4.26) |
| 24 | S55K S88C Q96F | 2.39 2.04 2.01 | 2.15 | 2 of 9 (3.81) |
| 25 | S88P R90F V97N | 5.26 n.d. n.d. | 5.26 | 2 of 9 (3.69) |
| 26 | S26P R28P S55C | 3.28 2.88 2.51 | 2.89 | 2 of 9 (4.17) |
| 27 | E23C Y29L S89V | 2.82 3.68 3.95 | 3.49 | 4 of 9 (3.71) |
| 28 | G24V R28K Q96F | 3.80 n.d. 3.91 | 3.85 | 3 of 9 (3.87) |
| 29 | E23I L27P R53D | 5.48 3.60 n.d. | 4.54 | 2 of 9 (3.98) |
| 30 | Y31V S92N | 3.10 3.01 n.d. | 3.06 | 0 of 9 |

Top 4 of the variants detected in all replicates, tightest first:

changes	log10 Kd, replicates	log10 Kd (nM), mean	signal with controls
Y30Q R53Q S88M	0.78 0.83 0.22	0.61	6 of 9 (4.26)
Y31F K50G V97T	2.06 2.01 1.73	1.93	3 of 9 (3.36)
S55K S88C Q96F	2.39 2.04 2.01	2.15	2 of 9 (3.81)
Y30G G49K D91P	2.81 3.06 2.13	2.67	0 of 9